GIV-Gai inh = GIV-Galpha-i interaction inhibition. AID 1224905. actives 0.42% (n = 210,000). percent of control (FP), % (test concentration not listed). Galpha-i3/FITC-GIV peptide fluorescence polarization, 90 min; stronger effect = lower value; scaled: aluminum fluoride 0%, vehicle 100%;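 active = replicate mean at 85% of control or lower, very high polarization wells dropped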;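 also: wells of about 15 µL received 100 nL stock; the first replicate is given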
Each line names hits and unclear results; the compound was inactive in the other large screens. This is one part of a sample in which hits are shown more often than they occur.

CCOc1ccc(N2C(=O)NC(=O)/C(=C\c3ccc(Br)o3)C2=O)cc1	none
Cc1ccc(N2C(=O)NC(=O)/C(=C\c3ccc(-c4ccccc4C(=O)O)o3)C2=O)cc1	none
CCc1ccccc1N1C(=O)NC(=O)/C(=C\c2ccc(N(CC)CC)o2)C1=O	GIV-Gai inh -59
CC(=O)N1CCOc2ccc(S(=O)(=O)N3CCOc4ccccc43)cc21	none
O=C1CC(c2nc3ccccc3[nH]2)CN1c1ccc(F)cc1 (stereo unspecified)	none
CC(C)(C)C(=O)[C@@H]1[C@@H](c2cccs2)C(C#N)(C#N)[C@H]2C=Cc3ccccc3N12	GIV-Gai inh -45
CC(C)(C)C(=O)[C@@H]1[C@@H](c2cccnc2)C(C#N)(C#N)[C@H]2C=Cc3ccccc3N12	none
CC(C)(C)C(=O)[C@@H]1[C@@H](c2ccsc2)C(C#N)(C#N)[C@H]2C=Cc3ccccc3N12	none
CC(=O)N1CCN(C2CCSC2)CC1 (stereo unspecified)	none
COc1ccc2[nH]c3c(=O)n(/N=C/c4ccccc4)cnc3c2c1	none
COCCNc1cc(N2CCN(C3CCCCC3)CC2)c2noc3c2c1C(=O)c1ccccc1-3	none
O=C1c2ccccc2-c2onc3c(N4CCCCC4)cc(Nc4ccccc4)c1c23	none
CC(C)Nc1cc(N2CCN(Cc3ccc4c(c3)OCO4)CC2)c2noc3c2c1C(=O)c1ccccc1-3	GIV-Gai inh -31
O=C1CCN(c2cc(Nc3cccc(F)c3)c3c4c(onc24)-c2ccccc2C3=O)CC1	none
Cc1ccccc1Nc1cc(N2CCCCC2)c2noc3c2c1C(=O)c1ccccc1-3	none
Cc1ccc(Nc2cc(N3CCCC3)c3noc4c3c2C(=O)c2ccccc2-4)cc1	none
CCNc1cc(N2CCOCC2)c2noc3c2c1C(=O)c1ccccc1-3	GIV-Gai inh -31
CCNc1cc(N2CCC3(CC2)OCCO3)c2noc3c2c1C(=O)c1ccccc1-3	none
Cc1ccccc1Nc1cc(N2CCCC2)c2noc3c2c1C(=O)c1ccccc1-3	none
CC1CCN(c2cc(NC(C)C)c3c4c(onc24)-c2ccccc2C3=O)CC1	GIV-Gai inh -4.4
CN(C)CCCNc1cc(N2CCN(C3CCCCC3)CC2)c2noc3c2c1C(=O)c1ccccc1-3	GIV-Gai inh -7.2
O=C1c2ccccc2-c2onc3c(N4CCN(C5CCCCC5)CC4)cc(NCCO)c1c23	none
O=C(Nc1cccc2c1CCCC2)n1ncc2cc(Cl)ccc21	none
CN(C)c1ccc(/C=C2/C(=O)NC(=O)N(C(C)(C)C)C2=O)cc1	none
Cc1cccc(C(=O)N2CCC[C@@H]2C(=O)NCc2csc(C)n2)c1	none
Cc1nn(-c2nc3ccccc3o2)c2c1C(c1cccnc1)CC(=O)N2 (stereo unspecified)	none
Cn1c(=O)c(=O)[nH]c2cc(-c3noc(/C=C/c4ccccc4Cl)n3)ccc21	none
Cc1nn2c(S(=O)(=O)N3CCCCCC3)c(C)nc2s1	none
CC(C)NC(=O)c1cc(-c2ccccc2)on1	none
FC(F)(F)C(F)(F)C1=NC(C(F)(F)F)(C(F)(F)F)N=C(c2cc(Cl)cc(Cl)c2)O1	none
CCOc1nc2c(c(C)nn2-c2ccc(C)cc2)c(C)c1CCC(=O)Nc1ccc(F)cc1	none
O=C(Cn1c(=O)oc2ccccc21)NCCc1ccco1	none
Cc1n[nH]c(C)c1S(=O)(=O)N1CCCC(c2nnc(C(=O)Nc3ccc(F)cc3)s2)C1 (stereo unspecified)	none
Cc1cc(C)nc(NS(=O)(=O)c2ccc(NC(=O)c3sc4nc5c(cc4c3N)CCC5)cc2)n1	none
COC(=O)c1ccc2c(=O)n(CCN3CCOCC3)c(SCC(=O)Nc3cccc(C(F)(F)F)c3)nc2c1	none
CC(C)CNc1cc(N2CCC(C)CC2)c2noc3c2c1C(=O)c1ccccc1-3	none
CC1CCN(c2cc(N3CCN(C(=O)c4ccco4)CC3)c3c4c(onc24)-c2ccccc2C3=O)CC1	none
CC1CCN(c2cc(NCc3ccccc3)c3c4c(onc24)-c2ccccc2C3=O)CC1	GIV-Gai inh -4.4
CC(C)Nc1cc(Br)c2noc3c2c1C(=O)c1ccccc1-3	GIV-Gai inh -55
O=C1c2ccccc2-c2onc3c(Br)cc(Sc4ccccc4)c1c23	none
O=C1c2ccccc2-c2onc3c(Br)cc(NC4CCCCC4)c1c23	none
CNc1ncccc1-c1nc(-c2ccc(C)cc2)no1	none
NC(=O)NC1CCCCC1	none
Cc1ccccc1NC(=O)N1Cc2cccn2-c2ccccc21	none
CC(C)Cn1c(=O)c2sccc2n2c(CCC(=O)NC3CCC(C)CC3)nnc12 (stereo unspecified)	none
CCOC(=O)c1c(CN(CC)CC)n(C)c2c1cc(OC(C)=O)c1c2c(-c2ccccc2)nn1-c1ccccc1	none
CCN1C(=O)/C(=C/C=C2\Oc3ccccc3N2CC)SC1=S	none
CCN1/C(=C/C=C2\SC(=S)N(C)C2=O)Oc2ccccc21	none
CCCN1C(=O)/C(=C/C=C2/Oc3ccccc3N2CCC(=O)O)N(CCO)C1=S	GIV-Gai inh -18
CCN(CCN(C)C)c1ccc(C(=O)O)cc1NS(=O)(=O)CC	none
O=C(Oc1ccc(C2Oc3ccccc3C3CC(c4ccc(Br)cc4)=NN32)cc1)c1ccc(Br)cc1 (stereo unspecified)	none
CCCCOc1ccc(C2CC(=O)Nc3c2c(C)nn3-c2ccc3nnc(C)n3n2)cc1OCC (stereo unspecified)	GIV-Gai inh 75
CCCOc1ccc(C2CC(=O)Nc3c2c(C)nn3-c2ccc3nnc(C)n3n2)cc1OCC (stereo unspecified)	none
C=CCOc1ccc(C2CC(=O)Nc3c2c(C)nn3-c2ccc3nnc(C)n3n2)cc1OCC (stereo unspecified)	none
CC(=O)N1CC(C)(C)c2cc(S(=O)(=O)NC3CC3)ccc21	none
Fc1ccc(OCCc2nc(-c3ccc(Cl)cc3)no2)cc1	none
COC(=O)c1c(-c2ccccc2Cl)noc1C	none
COc1cc(/C=C2\C(=O)NC(=O)N(c3ccc(C)cc3)C2=O)cc(Br)c1O	none
Cc1ccc(N2C(=O)NC(=O)/C(=C\c3ccc(O)c(Br)c3)C2=O)cc1	none
Cc1ccc(N2C(=O)NC(=O)/C(=C/c3cc(Br)c(O)cc3O)C2=O)cc1	GIV-Gai inh -71
O=C(NC(=NCc1ccncc1)Nc1cccc(F)c1)c1ccc2c(c1)OCO2	none
OCCNCc1ccc(-c2cccc(Cl)c2)o1	none
O=C(Nc1nc2n(n1)C(c1ccccc1)C=C(c1ccccc1)N2)c1ccco1 (stereo unspecified)	none
COc1ccc(C(=O)Nc2nc3n(n2)C(c2ccccc2)C=C(c2ccccc2)N3)cc1 (stereo unspecified)	none
O=C(O)CCC(=O)Nc1nc2n(n1)C(c1ccccc1)C=C(c1ccccc1)N2 (stereo unspecified)	GIV-Gai inh 83
CC1CCCC(C)N1C(=O)Nc1ccccc1 (stereo unspecified)	none
O=C1CCNc2cc3ccccc3cc21	none
CN(C1CCCCC1)S(=O)(=O)c1ccc2c(c1)CCN2	none
O=C1CCNc2ccc(-c3ccccc3)cc21	GIV-Gai inh 14
O=C(CSc1nc2ccc(NC(=O)c3ccc(Cl)cc3Cl)cc2s1)NCC1CCCO1 (stereo unspecified)	none
O=C(O)c1scc2c1OCCO2	none
O=C(CSc1ccccc1)N1CCCN(c2ccc(=O)n(-c3ccccc3)n2)CC1	none
Cn1cccc1/C=C1\CN(Cc2ccccc2)C/C(=C\c2cccn2C)C1=O	GIV-Gai inh -88
Cn1cccc1/C=C1\CC(c2ccccc2)C/C(=C\c2cccn2C)C1=O (stereo unspecified)	none
O=C1/C(=C\c2ccccn2)CN(Cc2ccccc2)C/C1=C\c1ccccn1	none
CC1C/C(=C/c2cccn2C)C(=O)/C(=C/c2cccn2C)C1 (stereo unspecified)	GIV-Gai inh -75

High-throughput results deposited in PubChem by ICCB-Longwood Screening Facility, Harvard Medical School.
